What all share (experiment): Caliper, Mobility shift assay off-chip
The target of one experiment is EPHA6 (human) (UniProt Q9UF33). The note with it: compound 0.001 µM.
The next experiment concerns the target MET (human) (UniProt P08581). To be noted: compound 0.02 µM.
A further experiment addresses JAK3 JH1 JH2 (human) (UniProt P52333). The note with it: compound 0.02 µM.
In a further experiment the target is YES1 (human) (UniProt P07947). To be noted: compound 0.02 µM.

Chains of the proteins cited; added tags and fusions are not shown. Lines headed by an entry give the natural chain unless they say otherwise; changes in a name come on top.
UniProt Q9UF33: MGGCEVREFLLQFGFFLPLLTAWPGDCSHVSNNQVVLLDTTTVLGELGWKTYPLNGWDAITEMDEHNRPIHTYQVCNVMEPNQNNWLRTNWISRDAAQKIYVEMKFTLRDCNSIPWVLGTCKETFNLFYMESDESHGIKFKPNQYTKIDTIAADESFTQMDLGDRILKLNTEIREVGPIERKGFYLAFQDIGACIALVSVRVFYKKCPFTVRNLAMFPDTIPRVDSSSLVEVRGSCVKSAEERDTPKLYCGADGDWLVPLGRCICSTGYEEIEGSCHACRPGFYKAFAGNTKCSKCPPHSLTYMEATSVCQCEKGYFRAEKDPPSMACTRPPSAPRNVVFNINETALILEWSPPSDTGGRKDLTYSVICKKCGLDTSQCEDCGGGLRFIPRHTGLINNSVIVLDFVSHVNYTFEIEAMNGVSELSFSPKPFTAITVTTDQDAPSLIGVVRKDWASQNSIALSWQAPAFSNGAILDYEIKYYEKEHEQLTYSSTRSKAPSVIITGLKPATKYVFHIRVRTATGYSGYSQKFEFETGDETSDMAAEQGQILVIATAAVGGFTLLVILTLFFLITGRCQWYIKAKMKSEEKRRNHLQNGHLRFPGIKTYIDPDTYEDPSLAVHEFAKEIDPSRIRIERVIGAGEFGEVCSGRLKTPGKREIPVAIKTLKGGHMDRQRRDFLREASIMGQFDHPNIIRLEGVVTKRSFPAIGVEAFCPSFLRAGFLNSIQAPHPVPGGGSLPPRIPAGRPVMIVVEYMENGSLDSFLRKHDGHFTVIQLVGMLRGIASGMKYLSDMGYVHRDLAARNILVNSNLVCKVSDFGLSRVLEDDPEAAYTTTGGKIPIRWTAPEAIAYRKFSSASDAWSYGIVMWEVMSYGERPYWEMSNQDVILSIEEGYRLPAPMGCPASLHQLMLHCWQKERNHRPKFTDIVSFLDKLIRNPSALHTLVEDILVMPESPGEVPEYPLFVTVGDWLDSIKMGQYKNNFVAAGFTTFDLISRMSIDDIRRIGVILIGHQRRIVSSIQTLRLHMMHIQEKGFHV
UniProt P08581: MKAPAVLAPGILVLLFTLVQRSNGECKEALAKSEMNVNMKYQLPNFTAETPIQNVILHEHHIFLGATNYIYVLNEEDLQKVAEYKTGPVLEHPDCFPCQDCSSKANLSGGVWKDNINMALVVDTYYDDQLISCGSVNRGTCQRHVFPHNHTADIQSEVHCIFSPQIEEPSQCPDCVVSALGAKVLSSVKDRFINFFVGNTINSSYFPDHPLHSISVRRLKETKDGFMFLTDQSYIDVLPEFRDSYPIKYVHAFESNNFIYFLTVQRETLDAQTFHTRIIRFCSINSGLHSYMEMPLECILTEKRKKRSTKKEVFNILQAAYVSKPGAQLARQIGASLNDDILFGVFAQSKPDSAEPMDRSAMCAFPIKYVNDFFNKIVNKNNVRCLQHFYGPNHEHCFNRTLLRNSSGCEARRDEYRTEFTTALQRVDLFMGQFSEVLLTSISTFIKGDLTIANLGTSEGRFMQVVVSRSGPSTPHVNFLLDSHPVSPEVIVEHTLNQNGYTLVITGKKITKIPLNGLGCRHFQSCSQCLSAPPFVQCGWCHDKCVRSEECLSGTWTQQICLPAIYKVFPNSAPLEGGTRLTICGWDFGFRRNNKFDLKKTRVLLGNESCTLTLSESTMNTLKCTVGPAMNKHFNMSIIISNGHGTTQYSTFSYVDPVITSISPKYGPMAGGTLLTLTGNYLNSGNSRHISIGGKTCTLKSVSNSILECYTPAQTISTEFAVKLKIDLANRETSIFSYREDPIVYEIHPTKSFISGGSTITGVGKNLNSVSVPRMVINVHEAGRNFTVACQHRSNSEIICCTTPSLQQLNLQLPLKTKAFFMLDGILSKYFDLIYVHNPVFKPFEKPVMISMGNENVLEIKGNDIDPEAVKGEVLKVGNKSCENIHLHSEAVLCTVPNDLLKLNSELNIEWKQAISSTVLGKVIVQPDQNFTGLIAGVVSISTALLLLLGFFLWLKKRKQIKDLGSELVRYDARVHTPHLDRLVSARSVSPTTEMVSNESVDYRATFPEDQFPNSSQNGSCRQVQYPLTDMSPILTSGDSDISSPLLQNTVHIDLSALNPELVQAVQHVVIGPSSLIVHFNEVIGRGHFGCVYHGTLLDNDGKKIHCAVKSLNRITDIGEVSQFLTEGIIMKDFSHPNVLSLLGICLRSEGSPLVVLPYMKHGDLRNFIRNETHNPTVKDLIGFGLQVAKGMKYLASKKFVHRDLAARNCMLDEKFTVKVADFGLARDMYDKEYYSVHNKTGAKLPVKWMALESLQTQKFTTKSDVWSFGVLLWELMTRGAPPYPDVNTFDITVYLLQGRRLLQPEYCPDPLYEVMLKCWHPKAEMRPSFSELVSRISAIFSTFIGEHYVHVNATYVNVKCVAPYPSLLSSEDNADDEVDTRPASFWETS
UniProt P52333: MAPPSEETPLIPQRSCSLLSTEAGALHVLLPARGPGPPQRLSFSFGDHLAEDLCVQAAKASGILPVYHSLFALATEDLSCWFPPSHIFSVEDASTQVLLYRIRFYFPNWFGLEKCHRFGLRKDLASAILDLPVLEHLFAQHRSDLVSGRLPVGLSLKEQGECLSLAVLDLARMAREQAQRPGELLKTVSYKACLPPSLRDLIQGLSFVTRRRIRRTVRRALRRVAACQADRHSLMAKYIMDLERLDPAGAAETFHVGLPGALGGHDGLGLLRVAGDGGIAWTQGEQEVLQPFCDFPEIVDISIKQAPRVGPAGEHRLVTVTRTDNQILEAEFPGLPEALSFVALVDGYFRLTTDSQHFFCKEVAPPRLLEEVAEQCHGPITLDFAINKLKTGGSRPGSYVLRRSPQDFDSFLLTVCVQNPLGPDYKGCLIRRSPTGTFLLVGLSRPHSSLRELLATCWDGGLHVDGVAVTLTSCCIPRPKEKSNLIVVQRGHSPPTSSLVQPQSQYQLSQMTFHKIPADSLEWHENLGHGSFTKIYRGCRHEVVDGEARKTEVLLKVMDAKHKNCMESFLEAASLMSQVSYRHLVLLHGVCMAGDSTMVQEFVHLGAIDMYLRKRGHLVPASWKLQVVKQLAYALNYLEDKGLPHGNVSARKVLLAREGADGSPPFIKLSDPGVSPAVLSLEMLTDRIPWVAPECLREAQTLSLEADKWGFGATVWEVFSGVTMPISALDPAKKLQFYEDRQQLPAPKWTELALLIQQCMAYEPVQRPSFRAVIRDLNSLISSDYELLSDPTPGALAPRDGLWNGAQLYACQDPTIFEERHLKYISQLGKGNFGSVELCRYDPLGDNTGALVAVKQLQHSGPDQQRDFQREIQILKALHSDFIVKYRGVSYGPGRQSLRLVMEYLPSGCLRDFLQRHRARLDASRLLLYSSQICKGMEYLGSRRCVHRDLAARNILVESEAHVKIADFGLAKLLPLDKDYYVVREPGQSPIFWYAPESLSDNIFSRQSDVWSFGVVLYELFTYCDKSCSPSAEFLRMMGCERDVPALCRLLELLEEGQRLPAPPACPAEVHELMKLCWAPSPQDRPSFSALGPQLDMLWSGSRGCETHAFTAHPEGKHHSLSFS
UniProt P07947, whole entry, looked up: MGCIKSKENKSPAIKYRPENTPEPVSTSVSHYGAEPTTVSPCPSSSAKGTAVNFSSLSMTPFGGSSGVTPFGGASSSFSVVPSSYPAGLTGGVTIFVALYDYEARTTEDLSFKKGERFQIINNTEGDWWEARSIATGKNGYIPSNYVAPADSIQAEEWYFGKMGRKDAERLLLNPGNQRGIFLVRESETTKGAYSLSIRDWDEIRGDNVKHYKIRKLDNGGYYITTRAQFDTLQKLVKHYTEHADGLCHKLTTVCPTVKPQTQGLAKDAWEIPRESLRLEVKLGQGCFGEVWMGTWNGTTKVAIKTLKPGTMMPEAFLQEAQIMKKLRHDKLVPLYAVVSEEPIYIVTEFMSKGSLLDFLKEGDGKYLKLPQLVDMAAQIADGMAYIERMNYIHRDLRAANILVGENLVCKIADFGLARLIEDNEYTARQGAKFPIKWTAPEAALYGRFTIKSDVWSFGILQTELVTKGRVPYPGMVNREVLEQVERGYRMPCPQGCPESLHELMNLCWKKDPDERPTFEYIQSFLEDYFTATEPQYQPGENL

The record followed here is the kinase profiling compilation of Christmann-Franck et al. (2016).

Regarding `CNC(=O)c1ccccc1Sc1ccc2c(/C=C/c3ccccn3)n[nH]c2c1`, the inhibition on EPHA6 (human) is -5.1%; at MET (human), -3.6%; on JAK3 JH1 JH2 (human), 7.5%; on YES1 (human), 9.1%.
